This assay has as its target T1, R7 (Peptoclostridium litorale, UniProt A0A069RI07).
T1 sequence (A0A069RI07 38-318 limits assumed): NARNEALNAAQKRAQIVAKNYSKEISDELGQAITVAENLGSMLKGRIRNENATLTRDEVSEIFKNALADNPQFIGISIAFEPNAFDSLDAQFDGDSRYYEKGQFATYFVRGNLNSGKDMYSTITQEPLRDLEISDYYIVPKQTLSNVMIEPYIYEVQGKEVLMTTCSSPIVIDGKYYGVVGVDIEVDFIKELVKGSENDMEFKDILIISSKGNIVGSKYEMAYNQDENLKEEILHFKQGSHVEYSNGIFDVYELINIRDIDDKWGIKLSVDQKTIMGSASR
Description: ITC. Format: binding.

As to `CN(C)C` [Trimethylamine], the Kd (usually the constant that tells how readily two partners part at equilibrium) was 12.6 ± 1 µM.

The values are drawn from PMC10589655 (Proceedings of the National Academy of Sciences of the …, 2023).
